# This is one part of the list.
# T1: LIN28A (human?, UniProt Q9H9Z2 1-209)
# T1 sequence: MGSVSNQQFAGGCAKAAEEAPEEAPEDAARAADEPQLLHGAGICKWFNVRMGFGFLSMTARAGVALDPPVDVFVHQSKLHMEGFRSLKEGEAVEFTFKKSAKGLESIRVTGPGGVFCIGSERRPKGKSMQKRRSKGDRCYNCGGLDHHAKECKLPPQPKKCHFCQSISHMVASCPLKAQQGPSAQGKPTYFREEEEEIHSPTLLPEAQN
# T2: CIRBP (Homo sapiens, UniProt Q14011 1-172)
# T2 sequence: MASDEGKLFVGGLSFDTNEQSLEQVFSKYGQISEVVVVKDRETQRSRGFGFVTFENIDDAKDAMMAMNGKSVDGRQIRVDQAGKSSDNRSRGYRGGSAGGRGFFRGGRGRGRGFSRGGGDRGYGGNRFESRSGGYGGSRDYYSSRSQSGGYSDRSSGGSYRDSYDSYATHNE
# T3: DHX36 (Homo sapiens, UniProt Q9H2U1 1-1008)
# T3 sequence: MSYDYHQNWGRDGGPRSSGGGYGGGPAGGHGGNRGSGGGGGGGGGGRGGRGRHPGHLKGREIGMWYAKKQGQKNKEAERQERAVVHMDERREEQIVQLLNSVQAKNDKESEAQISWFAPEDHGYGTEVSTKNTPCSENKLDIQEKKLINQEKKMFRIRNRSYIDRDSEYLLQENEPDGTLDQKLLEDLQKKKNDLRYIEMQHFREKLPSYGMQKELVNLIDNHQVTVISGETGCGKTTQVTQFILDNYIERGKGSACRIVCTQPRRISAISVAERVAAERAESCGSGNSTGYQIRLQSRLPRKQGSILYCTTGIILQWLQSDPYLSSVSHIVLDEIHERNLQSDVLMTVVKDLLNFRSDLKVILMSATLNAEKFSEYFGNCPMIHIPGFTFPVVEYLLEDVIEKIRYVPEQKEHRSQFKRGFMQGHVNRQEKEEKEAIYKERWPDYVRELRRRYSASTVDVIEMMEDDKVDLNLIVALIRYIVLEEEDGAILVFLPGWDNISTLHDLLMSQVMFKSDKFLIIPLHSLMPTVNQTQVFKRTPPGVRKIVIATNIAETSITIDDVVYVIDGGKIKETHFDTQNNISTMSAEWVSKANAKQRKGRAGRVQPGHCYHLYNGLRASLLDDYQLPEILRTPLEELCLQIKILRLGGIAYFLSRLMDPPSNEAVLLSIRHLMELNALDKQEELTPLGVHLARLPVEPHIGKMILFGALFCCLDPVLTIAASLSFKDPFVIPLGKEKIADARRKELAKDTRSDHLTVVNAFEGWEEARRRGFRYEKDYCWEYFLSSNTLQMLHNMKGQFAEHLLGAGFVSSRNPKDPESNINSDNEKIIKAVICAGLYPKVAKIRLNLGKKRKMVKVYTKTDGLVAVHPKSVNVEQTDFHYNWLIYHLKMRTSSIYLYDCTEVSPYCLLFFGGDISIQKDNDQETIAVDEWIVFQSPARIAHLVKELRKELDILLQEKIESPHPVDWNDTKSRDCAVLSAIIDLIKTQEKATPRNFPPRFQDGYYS
# B1: hsa-mir-378c (structured_RNA)
# RNA: GGGAGCAGUCUCAGGCAUUCGCAUUCAAGGUGUACGAAGUUUCAGCGUGGAGUCGGGUCAGACUUCAAGCUGAAGCUUCGUGCAC
# B2: hsa-mir-653 (structured_RNA)
# RNA: GGGAGCAAGAGGUUAGACAAACCAACUCGGUGUACGAAGUUUCAGCACUGAACCAGCUUCAAACAAGUUCACUGCUGAAGCUUCGUGCAC
# B3: hsa-mir-335 (structured_RNA)
# RNA: GGGAGAACUCUCCCACGGGAAAUACGUCGGUGUACGAAGUUUCAGCAAAAUGUUUGUCAUAAACCGUUUUGCUGAAGCUUCGUGCAC
# B4: hsa-mir-7845 (structured_RNA)
# RNA: GGGAAGAAUGUAACCGCGUAUGCUCACCGGUGUACGAAGUUUCAGCUGGCGACACUCGCGCCAGCUCCCGGGACGGCUGGGCUCGGGCUGGUCGCCGAGCUGAAGCUUCGUGCAC
# B5: hsa-mir-320b-2 (structured_RNA)
# RNA: GGGAAAAGAAACCAUUAGCUGGAGACACGGUGUACGAAGUUUCAGCAUUUCCCAAAGUUGGGAAAAGCUGAAGCUUCGUGCAC
# B6: hsa-mir-1279 (structured_RNA)
# RNA: GGGAAGACCUAUACCUUAGCUGCCAAGUGGUGUACGAAGUUUCAGCUUCUAAUGCCAAGAAGCUGAAGCUUCGUGCAC
# B7: hsa-mir-21 (structured_RNA)
# RNA: GGGAACAGGGUUGGACUAAGUGUACCUCGGUGUACGAAGUUUCAGCGUUGACUGUUGAAUCUCAUGGCAACGCUGAAGCUUCGUGCAC
# B8: hsa-mir-548m (structured_RNA)
# RNA: GGGAAUCACCGGUGUUGAUUGCACAUCCGGUGUACGAAGUUUCAGCUUUGUCAUUAAAGUAAUGCAAAGCUGAAGCUUCGUGCAC
# B9: hsa-mir-4750 (structured_RNA)
# RNA: GGGAACAAGUCAAGGACUACUAGCUAUGGGUGUACGAAGUUUCAGCUGAGUGCCGACUGGCGCCUGGCUGAAGCUUCGUGCAC
# B10: hsa-mir-519d (structured_RNA)
# RNA: GGGCAAGGGCAGCUUACGGGCUAGAGUCGGUGUACGAAGUUUCAGCUCUGUUUGUUUUCUCUUAAACAGCUGAAGCUUCGUGCAC
# B11: hsa-mir-362 (structured_RNA)
# RNA: GGGAAUGCGCAAAGGUUCAUAAGUCACCGGUGUACGAAGUUUCAGCUGAGUGCUAUUUCAGUGCAACAGCUGAAGCUUCGUGCAC
# B12: hsa-mir-8068 (structured_RNA)
# RNA: GGGACCUAACGGUAGCGAGCACUAAUUGGGUGUACGAAGUUUCAGCUUGUGGCAAUACAGGCUGAAGCUUCGUGCAC
# B13: PARIS_ID13 (structured_RNA)
# RNA: GGGACUCGGCGCAGAUAAAAGCUAGCCUGGUGUACGAAGUUUCAGCGCAAUGGAAUGUAAUGAUCAUCACUUUUCAUUAUGCGCUGAAGCUUCGUGCAC
# B14: hsa-mir-451b (structured_RNA)
# RNA: GGGACCCCUGGUGUUACAAUAGCAGAUCGGUGUACGAAGUUUCAGCCAUUACUAAACUCAGUAAUGGCUGAAGCUUCGUGCAC
# B15: hsa-mir-320d-1 (structured_RNA)
# RNA: GGGAAUGCAGGUUUCAGCCGCGAUCAUAGGUGUACGAAGUUUCAGCUCUUCCCAAAGUUGAGAAAAGCUGAAGCUUCGUGCAC
# B16: hsa-mir-202 (structured_RNA)
# RNA: GGGAGCUUUACUAUUUCGGGACGGAGUGGGUGUACGAAGUUUCAGCUUCUUUGAGGAUCUGGCCUAAAGAGGCUGAAGCUUCGUGCAC
# B17: hsa-mir-155 (structured_RNA)
# RNA: GGGAAAGGCUAAGGCCCAAUCAUGCGUAGGUGUACGAAGUUUCAGCGGGGUUUUUGCCUCCAACUGACUCCGCUGAAGCUUCGUGCAC
# B18: hsa-mir-521-2 (structured_RNA)
# RNA: GGGAAGAUACUCCUGCAAUGCCGCAAAUGGUGUACGAAGUUUCAGCAAUUUUCUCUUGUCUAAAAGAAAAGAACGGCUGAAGCUUCGUGCAC
# B19: hsa-mir-548f-1 (structured_RNA)
# RNA: GGGAACGAAACAACUCAGGCAGCCCUUCGGUGUACGAAGUUUCAGCUUUUGACAUUACUUUCAAAGACAAAAGCUGAAGCUUCGUGCAC
# B20: hsa-mir-5692a-2_5692a-1 (structured_RNA)
# RNA: GGGAUAUGAACAGUCGUUUGUCUCGGGAGGUGUACGAAGUUUCAGCGUGUACCUCAUGUGUGUACACGCUGAAGCUUCGUGCAC
# B21: hsa-mir-4472-2 (structured_RNA)
# RNA: GGGACCUUCCAGCGGCAAUUCUUAAGGUGGUGUACGAAGUUUCAGCUUUUUGUUUUUGAGACAGAGUGCUGAAGCUUCGUGCAC
# B22: hsa-mir-507 (structured_RNA)
# RNA: GGGAAAUGCAUUACCAUUUACCCACCCGGGUGUACGAAGUUUCAGCCAUGCAUGUGUCUAGAAAUAUGUUUUGCUGAAGCUUCGUGCAC
# B23: hsa-mir-567 (structured_RNA)
# RNA: GGGAGAAGCGUUGAUGAGCAUCUAACGCGGUGUACGAAGUUUCAGCCAUUCUUUGCUAGCUGAAGCUUCGUGCAC
# B24: hsa-mir-4282 (structured_RNA)
# RNA: GGGAAAGGAUGCGGCAGUCCACUCCUUAGGUGUACGAAGUUUCAGCUUUAGUAUGCCACAUUUCUAAAGCUGAAGCUUCGUGCAC
# B25: hsa-mir-4425 (structured_RNA)
# RNA: GGGAAGAACACCCAUUUGAUGGCAUGGGGGUGUACGAAGUUUCAGCAACAGCUUUGCGAAGUGUUGUUGCUGAAGCUUCGUGCAC
# B26: hsa-mir-651 (structured_RNA)
# RNA: GGGAAAUGCGUUAAUAAGACCGAUUGUCGGUGUACGAAGUUUCAGCCUUUUGUUCAAAUAAAAAUGCAAAAGGCUGAAGCUUCGUGCAC
# Biological target: T1, LIN28A
# Assay: FOREST: bead pull-down of RNA structure library v1, barcode microarray; U1A/LIN28A: 20 mM HEPES pH 7.5, 80 mM KCl, 20 mM NaCl, 10% glycerol, 2 mM DTT, 0.1 ug/uL BSA, 4 C; BG4/CIRBP/DHX36: 10 mM Tris-HCl pH 7.5, 100 mM KCl (or LiCl),; high values mean tight binding
row,Binder,binding signal [z-score]
1,B1,-1.43
2,B2,-1.45
3,B3,-1.4
4,B4,-1.44
5,B5,-1.39
6,B6,-1.37
7,B7,-1.35
8,B8,-1.36
9,B9,-1.38
10,B10,-1.36
11,B11,-1.36
12,B12,-1.42
13,B13,-1.35
14,B14,-1.37
15,B15,-1.36
16,B16,-1.35
17,B17,-1.44
18,B18,-1.44
19,B19,-1.36
20,B20,-1.45
21,B21,-1.4
22,B22,-1.38
23,B23,-1.36
24,B24,-1.36
25,B25,-1.38
26,B26,-1.42

# Biological target: T2, CIRBP
# Assay: as above
row,Binder,binding signal [z-score]
1,B1,0.724
2,B2,-2.02
3,B3,-2.21
4,B4,-1.11
5,B5,-0.604
6,B6,0.159
7,B7,-0.623
8,B8,-1.3
9,B9,-0.51
10,B10,-0.712
11,B11,-1.1
12,B12,-0.859
13,B13,-0.117
14,B14,-0.167
15,B15,-0.532
16,B16,-0.39
17,B17,-0.605
18,B18,-0.109
19,B19,-1.32
20,B20,0.497
21,B21,0.471
22,B22,-0.575
23,B23,-0.767
24,B24,-0.832
25,B25,-0.256
26,B26,-1.27

# Biological target: T3, DHX36
# Assay: as above
row,Binder,binding signal [z-score]
1,B1,0.0251
2,B2,0.243
3,B3,-0.439
4,B4,-0.294
5,B5,-0.642
6,B6,-0.0152
7,B7,-1.04
8,B8,0.765
9,B9,-0.374
10,B10,-0.438
11,B11,-0.307
12,B12,0.346
13,B13,0.174
14,B14,-0.733
15,B15,-0.574
16,B16,-0.984
17,B17,-0.142
18,B18,-0.966
19,B19,-0.971
20,B20,-1.56
21,B21,-0.672
22,B22,0.301
23,B23,-1.14
24,B24,-0.826
25,B25,-0.943
26,B26,-1.54

# Reference: article PMC7723054
